Test results reported in patent publication US8192753B2, “pH-sensitive cationic lipids, and liposomes and nanocapsules containing the same” (Marina Biotech, Inc., priority 2002, dated 2012).
Read-outs that look alike come from different tables or passages of the source.

Legend:
[1] = pH 3
[2] = Determination of pKa values by titration in 0.5% TRITON-X 100; settings: lipid in 0.5% TRITON-X 100 in water, titrated with 20 mM NaOH from pH 3.0

Row | pKa [1] | Substance | pKa [2]
1 | 6.7 | 2-histamine-(1,2-dipalmitoyl-sn-glycero-3-hydroxyphosphoryloxy)ethyl [#30] | –
2 | – | histamine-dipalmitoylglycerol succinate [#59] | 5.5
